Assay results: patent publication US10729759B2, “Fluorocarbon-linked peptide formulation” (priority 2010, dated 2020)
Entries after “also recorded” stand apart in the source; their conditions may differ.

Columns and labels:
[1] = format: physicochemical; details: for Further dilution in Mannitol:Water Solubility: FCP 0.167 mM, 1.33% (w/v) mannitol, cloudiness / particulates; for Dispersion in Water Solubility: FCP 1.333 mM in water, vortexed and sonicated, cloudiness (Clear/Cloudy−/Cloudy/Cloudy+) / particulates
Method: The solubility of each FCP in water was assessed. Each FCP was dispersed in 300 μl of water to a final concentration of 1.333 mM and vortexed and sonicated. The typical dispersion conditions were four sequences of three minutes bath sonication interspersed by 30 seconds vortexing. After inspection, the resulting solution was diluted with a mannitol solution (a candidate lyophilisation medium, final concentration of peptide 0.167 mM, 1.33% (w/v) mannitol). Solubility was assessed by visual observation of the cloudiness of the resulting dispersion (scaled: Clear/Cloudy−/Cloudy/Cloudy+) and presence of particulates. […]

[2] = format: physicochemical; details: 1.33% mannitol, 0.22 μm PVDF filter; for YIELD % of each FCP following sterile filtration, MIX 1: MIX 1 dispersed in water; for YIELD % of each FCP following sterile filtration, MIX 2: MIX 2 dispersed in water
[3] = format: physicochemical
Method: In order to limit the concentration of acetic acid downstream in the formulation process and in the final product, the lowest concentration of acetic acid in water to achieve efficient dispersion and maintain visible solubility was determined for each fluorocarbon-linked peptide. When using mannitol as a cryprotectant, it is important to minimize the acetic acid concentration at the lyophilisation stage in order to achieve a stable and amorphous freeze-dried product. The minimum acetic acid concentration to achieve acceptable dispersibility and solubility of the individual fluorocarbon-linked peptides was determined. The final concentration of fluorocarbon-linked peptide after initial acetic acid dispersion was 2 μmol/ml and after dilution with mannitol, 0.250 μmol/ml.

## CC[C@H](C)[C@H](NC(=O)CNC(=O)[C@H](CCCCN)NC(=O)[C@@H](NC(=O)[C@H](CC(C)C)NC(=O)[C@@H]1CCCN1C(=O)[C@H](CO)NC(=O)[C@H](CC(C)C)NC(=O)[C@@H](NC(=O)[C@@H]1CCCN1C(=O)[C@H](CCCNC(=N)N)NC(=O)[C@@H](NC(=O)[C@H](CCCCN)NC(=O)[C@H](CC(C)C)NC(=O)[C@H](Cc1c[nH]c2ccccc12)NC(=O)[C@H](CCC(=O)O)NC(=O)[C@H](CCSC)NC(=O)[C@H](CC(C)C)NC(=O)[C@H](C)NC(=O)[C@H](CCC(=O)O)NC(=O)[C@H](CC(C)C)NC(=O)[C@H](CC(=O)O)NC(=O)[C@@H](N)CCCCNC(=O)CCC(F)(F)C(F)(F)C(F)(F)C(F)(F)C(F)(F)C(F)(F)C(F)(F)C(F)(F)F)[C@@H](C)O)[C@@H](C)CC)[C@@H](C)O)C(=O)N[C@@H](CC(C)C)C(=O)NCC(=O)N[C@@H](Cc1ccccc1)C(=O)N[C@H](C(=O)N[C@@H](Cc1ccccc1)C(=O)N[C@H](C(=O)N[C@@H](CC(C)C)C(=O)N[C@H](C(=O)N[C@H](C(=O)N1CCC[C@H]1C(=O)N[C@@H](CO)C(=O)N[C@@H](CCC(=O)O)C(=O)N[C@@H](CCCNC(=N)N)C(N)=O)C(C)C)[C@@H](C)O)[C@@H](C)O)C(C)C [FCP5]
[1]
  Further dilution in Mannitol:Water Solubility: insoluble; also recorded: Cloudy−/Particulates
  Dispersion in Water Solubility: Cloudy/Particulates
[2]
  YIELD % of each FCP following sterile filtration, MIX 1: 93.8%
  YIELD % of each FCP following sterile filtration, MIX 2: 35.6%
[3]; FCP 2 μmol/ml after acetic acid dispersion
  Percentage acetic acid (% v/v): minimum concentration for acceptable dispersibility and solubility: 10 % v/v
[3]; at the listed acetic acid concentration, FCP 2 μmol/ml
  Visual appearance after dispersion: Clear

## CC[C@H](C)[C@H](NC(=O)[C@H](Cc1ccc(O)cc1)NC(=O)[C@H](CO)NC(=O)[C@H](CCCCN)NC(=O)[C@H](CCCCN)NC(=O)[C@H](CCCCN)NC(=O)[C@@H](N)CCCCNC(=O)CCC(F)(F)C(F)(F)C(F)(F)C(F)(F)C(F)(F)C(F)(F)C(F)(F)C(F)(F)F)C(=O)N[C@@H](CC(N)=O)C(=O)N[C@@H](CCCCN)C(=O)N[C@H](C(=O)NCC(=O)N[C@H](C(=O)N[C@@H](Cc1ccccc1)C(=O)N[C@@H](CCC(=O)O)C(=O)N[C@@H](Cc1ccccc1)C(=O)N[C@H](C(=O)N[C@@H](CO)C(=O)N[C@@H](Cc1ccccc1)C(=O)N[C@@H](Cc1ccccc1)C(=O)N[C@@H](Cc1ccc(O)cc1)C(=O)N[C@@H](CCCNC(=N)N)C(=O)N[C@@H](Cc1ccc(O)cc1)C(=O)NCC(=O)N[C@@H](Cc1ccccc1)C(=O)N[C@H](C(=O)N[C@@H](C)C(=O)N[C@@H](CC(N)=O)C(=O)N[C@@H](Cc1ccccc1)C(=O)N[C@@H](CO)C(=O)N[C@@H](CCSC)C(=O)N[C@@H](CCC(=O)O)C(=O)N[C@@H](CC(C)C)C(=O)N1CCC[C@H]1C(=O)N[C@@H](CO)C(=O)N[C@@H](Cc1ccccc1)C(=O)NCC(N)=O)C(C)C)[C@@H](C)O)[C@@H](C)O)[C@@H](C)O [FCP7]
[1]
  Further dilution in Mannitol:Water Solubility: insoluble; also recorded: Cloudy+/No Particulates
  Dispersion in Water Solubility: Cloudy+/No Particulates
[2]
  YIELD % of each FCP following sterile filtration, MIX 1: 31.7%
  YIELD % of each FCP following sterile filtration, MIX 2: 63.2%
